Rtt109 Vps75: inhibitors of C. albicans Rtt109/Vps75 HAT, primary screen, biochemical, ThioGlo CoA-SH fluorescence, plate reader; 330,000 compounds, 0.16% hits; AID 540336, 2011; Histone acetyltransferase RTT109 (Candida albicans (strain SC5314 / ATCC MYA-2876)), …; purified Rtt109/Vps75, 4 h; inhibition, % at 34.9 µM;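 active means inhibition of at least 50% in every replicate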
UUG fidelity: yeast start codon fidelity modulation | S. cerevisiae UUG-firefly luciferase reporter, luminescence/redox ratio | activity score, % at 18.7 µM | 0.13% of 350,000 active | AID 602363;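 active means replicate mean at a twofold rise or more, about +100% in these data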;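 further: firefly luciferase made from a UUG start codon reports start codon fidelity; reporter light over untreated wells divided by growth signal over untreated wells; some hits fall short of that in this replicate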
CDK5 inh: inhibitors of human CDK5/p35 kinase, primary screen, biochemical, single concentration. Cyclin-dependent kinase 5 (Homo sapiens) + Cyclin-dependent kinase 5 activator 1 (Homo …. Recombinant CDK5/p35, ADP-Glo luminescence, 60 min. inhibition, % at 10 µM. 330,000 compounds, 0.01% hits. AID 488839, 2010;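 active means highest replicate inhibition of at least 50% and at least 75% of replicates reaching 50%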
Statin myotox sup: suppressors of statin myotoxicity in C2C12 myotubes, primary screen, cell-based, single point, plate reader. C2C12 myotubes + simvastatin, ATP luminescence, 48 h; scaled: DMSO 0, geranylgeraniol control 100. rescue of ATP level, % at 7.49 µM. 330,000 compounds, 0.78% hits;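 active means mean ATP rescue above about 67%, or every replicate alone reaching that limit, limit read from the data, passing the limit was not always enough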;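 further: myotubes were challenged with 10 µM simvastatin during compound exposure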
Cneo AK release: Cryptococcus neoformans cell lysis inducers, primary screen, AK release luminescence, single concentration | C. neoformans lysis, adenylate kinase release luminescence, 4 h; normalised: neutral wells 0, clomiphene wells 100 | 360,000 compounds, 0.2% hits | lysis activity, % at 15 µM;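 active means mean lysis activity across replicates of at least 80%, whatever share of replicates individually reach that level; inactive means mean lysis activity below 80%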
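Test system: log-phase Cryptococcus neoformans yeast cells. Input: 5 × 10^6 yeast cells/mL. Medium: fresh YPD growth medium. Doses: single dose. Incubation: static 4 h at 37 °C with compound, 1 h detection. Measured by: luminescent adenylate kinase detection reagent. Read-out: signal increase indicating cell lysis. Benchmarks: Clomiphene.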
Large screens that a line does not name were inactive. Rows were chosen to be rich in hits. Some 1% of all compounds tested hit in one or more screens of this group.

Cc1cccc(Oc2nc3c(c(=O)n(C)c(=O)n3C)n2C)c1	none
O=C(NCC1CC1)[C@H]1N[C@H]2c3ccc(-c4ccccc4F)c(=O)n3C[C@H]2[C@@H]1CO	none (no result: Rtt109 Vps75, CDK5 inh)
COCCn1nnnc1CN(CCc1ccc(OC)c(OC)c1)Cc1cc2ccc(C)cc2[nH]c1=O	Statin myotox sup 103 (no result: UUG fidelity, Cneo AK release)
C[C@H]1CN([C@@H](C)CO)C(=O)Cc2cc(NS(=O)(=O)c3cn(C)cn3)ccc2O[C@H]1CN(C)C(=O)Nc1ccc2c(c1)OCO2	none (no result: Rtt109 Vps75, CDK5 inh)
O=C(CC1COc2ccccc2O1)Nc1ccccn1 (configuration not stated)	none (no result: UUG fidelity, Cneo AK release)
O=C(CCC1COc2ccccc2O1)Nc1ccccn1 (configuration not stated)	Statin myotox sup 155
O=C(C[C@@H]1CC[C@@H]2[C@H](COC[C@@H](O)CN2Cc2ccccc2F)O1)N1CCc2ccccc2C1	none (no result: Rtt109 Vps75, CDK5 inh)
COC(=O)C1=C(O)/C(=C\c2ccc(OCC(=O)Nc3ccccc3)cc2)N=C1C	Statin myotox sup 104
COC(=O)C1=C(O)/C(=C/c2ccc(OCC(=O)Nc3ccc(OC)cc3)cc2)N=C1C	none (no result: Rtt109 Vps75, CDK5 inh)
COc1ccc(S(=O)(=O)Nc2cccc3c2O[C@@H](CN(C)C(=O)NC2CCCCC2)[C@H](C)CN([C@@H](C)CO)C3=O)cc1	none (no result: Rtt109 Vps75, CDK5 inh)
CCOc1ccc(C2NC(=O)C(C#N)=C(S)N2c2ccc(OC)cc2)cc1OC (configuration not stated)	Rtt109 Vps75 144 (no result: Statin myotox sup)
N#CC1=C(S)N(c2ccccc2)C(c2cccs2)NC1=O (configuration not stated)	Rtt109 Vps75 109
COc1ccc(N2C(S)=C(C#N)C(=O)NC2c2ccc(OC)c(OC)c2)cc1 (configuration not stated)	Rtt109 Vps75 110 (no result: UUG fidelity, Statin myotox sup, Cneo AK release)
COc1ccc(C2NC(=O)C(C#N)=C(S)N2c2cccc(C)c2)cc1OC (configuration not stated)	Rtt109 Vps75 74 (no result: Statin myotox sup)
COc1ccc(C2NC(=O)C(C#N)=C(S)N2c2ccc(C)cc2)cc1OC (configuration not stated)	none (no result: UUG fidelity, Statin myotox sup, Cneo AK release)
COc1ccc(S(=O)(=O)N(C)C[C@H]2OCCCC[C@H](C)Oc3ccc(NS(C)(=O)=O)cc3C(=O)N([C@@H](C)CO)C[C@@H]2C)cc1	none (no result: Rtt109 Vps75, CDK5 inh, Statin myotox sup)
CN(C)C(=O)C[C@@H]1CC[C@@H](NC(=O)Nc2cccc(F)c2)[C@H](CO)O1	none (no result: Rtt109 Vps75, CDK5 inh)
Cc1ccc(C(=O)C(C(=O)/C=C/c2ccccc2)=C2SCCCS2)cc1	Statin myotox sup 113
COc1ccccc1NC(=S)NCC1CCCO1 (configuration not stated)	none (no result: Statin myotox sup)
COc1ccc(NC(=S)NCC2CCCO2)c(OC)c1 (configuration not stated)	Statin myotox sup 91
Cc1nn(Cc2ccccc2Cl)c2sc(C(=O)NCc3ccc4c(c3)OCO4)cc12	Statin myotox sup 126
CCC(CC)NC(=O)c1cc2c(C)nn(Cc3ccccc3Cl)c2s1	none (no result: UUG fidelity, Cneo AK release)
CCC(C)NC(=O)CN1C(=O)C(CC)Sc2ccccc21 (configuration not stated)	none (no result: Statin myotox sup)
CC1Sc2ccccc2N(CC(=O)N(C(C)C)C(C)C)C1=O (configuration not stated)	Rtt109 Vps75 51
CC(C)c1ccc(NC(=O)NC(C)c2ccc3c(c2)OCO3)cc1 (configuration not stated)	Rtt109 Vps75 58 (no result: Statin myotox sup)
COc1cccc(S(=O)(=O)N2CC[C@@H]3[C@@H](CO)Nc4ccc(C#Cc5ccccc5)cc4[C@@H]32)c1	none (no result: Rtt109 Vps75, CDK5 inh)
Cc1cc(=S)[nH]c2c(C)cccc12	Statin myotox sup 74
CCCC[n+]1c(C)sc2ccc(C)cc21	none (no result: UUG fidelity, Statin myotox sup, Cneo AK release)
CC[n+]1c(C)sc2cc(C)ccc21	Rtt109 Vps75 85 (no result: Statin myotox sup)
Cc1ccc2sc(C)[n+](CCO)c2c1	Rtt109 Vps75 104
N#Cc1cc(-c2ccccc2)nnc1Sc1ccc(Cl)cc1	Statin myotox sup 113
S=C(NCCc1cccc(Cl)c1)NC1CCCCC1	Cneo AK release 88
S=C(NCCc1ccccc1)NC1CCC(NC(=S)NCCc2ccccc2)CC1 (configuration not stated)	none
O=C1CCC[C@@H]2Cc3nc4ccc(O)cc4cc3[C@@H]3CCN1[C@H]23	none
O=C1CCC[C@@H]2Cc3nc4cc5c(cc4cc3[C@@H]3CCN1[C@H]23)OCO5	Statin myotox sup 80
COc1cccc(S(=O)(=O)N2C[C@@H](O)COC[C@H]3O[C@H](CC(=O)N4CCN(C)CC4)CC[C@@H]32)c1	Cneo AK release 85 (no result: Rtt109 Vps75, CDK5 inh)
COc1cccc(S(=O)(=O)N2C[C@H](O)COC[C@@H]3O[C@H](CC(=O)Nc4ccccc4)CC[C@H]32)c1	none (no result: Rtt109 Vps75, UUG fidelity, CDK5 inh)
COc1cccc(S(=O)(=O)N2C[C@@H](O)COC[C@@H]3O[C@@H](CC(=O)N4CCN(C)CC4)CC[C@H]32)c1	none (no result: Rtt109 Vps75, CDK5 inh)
COc1cccc(S(=O)(=O)N2C[C@@H](O)COC[C@H]3O[C@H](CC(=O)Nc4ccccc4)CC[C@@H]32)c1	Cneo AK release 112 (no result: Rtt109 Vps75, UUG fidelity, CDK5 inh)
CC(SC(C)C(=O)NN=Cc1ccc(F)cc1)C(=O)NN=Cc1ccc(F)cc1 (configuration not stated)	Statin myotox sup 122
O=C(N1CCOCC1)N1CCN(S(=O)(=O)N2CCOCC2)CC1	Statin myotox sup 114
C[C@@H]1CN([C@H](C)CO)C(=O)c2cccc(NS(=O)(=O)c3ccc(F)cc3)c2O[C@H]1CN(C)S(=O)(=O)c1cn(C)cn1	none (no result: Rtt109 Vps75, CDK5 inh)
CO[C@@H]1CN(C)C(=O)c2cc(NC(=O)c3cc(C)on3)ccc2OC[C@H](C)N(C(C)=O)C[C@H]1C	none (no result: Rtt109 Vps75, CDK5 inh)
O=C(C[C@@H]1CC[C@H](NC(=O)c2cccnc2)[C@@H](CO)O1)NCCN1CCCCC1	none (no result: Rtt109 Vps75, CDK5 inh)
O=C(C[C@@H]1CC[C@@H](NC(=O)c2cccnc2)[C@@H](CO)O1)NCCN1CCCCC1	Cneo AK release 93 (no result: Rtt109 Vps75, CDK5 inh)
O=C(CCN1CCCCC1)NCC[C@H]1CC[C@H](NC(=O)Cc2cccnc2)[C@H](CO)O1	UUG fidelity 107 (no result: Rtt109 Vps75, CDK5 inh)
C[C@@H]1CN([C@H](C)CO)C(=O)c2cccc(NS(=O)(=O)c3ccc(Cl)cc3)c2O[C@@H]1CN(C)Cc1ccncc1	none (no result: Rtt109 Vps75, CDK5 inh)
O=C1C[C@@H]2c3c(cccc3CN1Cc1ccc(Br)cc1)C[C@@H](O)[C@H]2O	Statin myotox sup 100
C[C@@H]1CN([C@@H](C)CO)C(=O)Cc2cc(NS(=O)(=O)c3ccc(Cl)cc3)ccc2O[C@H]1CN(C)Cc1ccc2c(c1)OCO2	Statin myotox sup 99 (no result: Rtt109 Vps75, CDK5 inh)
C[C@@H]1CN([C@H](C)CO)C(=O)Cc2cc(NS(=O)(=O)c3ccc(Cl)cc3)ccc2O[C@H]1CN(C)Cc1ccc2c(c1)OCO2	Statin myotox sup 84 (no result: Rtt109 Vps75, CDK5 inh)
